# Reference: PubChem BioAssay (NCI)
#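 These data come from cells grown in 96-well plates and exposed to compound for 48 hours at five concentrations. GI50 marks 50% less growth. TGI: concentration producing complete growth inhibition.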
# Assays:
# Experiment in all cases: growth of human tumour cells (NCI), 48 h
# IGROV1 ovarian = test system: IGROV1 ovarian
# NCI-H522 lung = test system: NCI-H522 lung
# HT29 colon = test system: HT29 colon
# NCI/ADR-RES ovarian = test system: NCI/ADR-RES ovarian
# OVCAR-8 ovarian = test system: OVCAR-8 ovarian
# RXF 393 renal = test system: RXF 393 renal
# CAKI-1 renal = test system: CAKI-1 renal
# HCT-15 colon = test system: HCT-15 colon
# HCT-116 colon = test system: HCT-116 colon
# OVCAR-5 ovarian = test system: OVCAR-5 ovarian
# SK-OV-3 ovarian = test system: SK-OV-3 ovarian
# UACC-257 melanoma = test system: UACC-257 melanoma
# A498 renal = test system: A498 renal
# A549 NSCLC = test system: A549 NSCLC
# SK-MEL-28 melanoma = test system: SK-MEL-28 melanoma
# NCI-H322M lung = test system: NCI-H322M lung
# MDA-N = test system: MDA-N
# OVCAR-3 ovarian = test system: OVCAR-3 ovarian
# ACHN renal = test system: ACHN renal
# K-562 leukemia = test system: K-562 leukemia
# MCF7 breast = test system: MCF7 breast
# SK-MEL-5 melanoma = test system: SK-MEL-5 melanoma
# COLO 205 colon = test system: COLO 205 colon
# UO-31 renal = test system: UO-31 renal
# U251 CNS = test system: U251 CNS
# SF-268 CNS = test system: SF-268 CNS
# LOX IMVI melanoma = test system: LOX IMVI melanoma
# M14 melanoma = test system: M14 melanoma
# SR leukemia = test system: SR leukemia
smiles,measurement,setting,value
Cc1ccc2ccc(C)c(C)c2c1.O=[N+]([O-])c1cc([N+](=O)[O-])c(O)c([N+](=O)[O-])c1O,TGI,IGROV1 ovarian,> 100 µM
same,GI50,NCI-H522 lung,70.2 µM
same,TGI,NCI-H522 lung,> 100 µM
same,GI50,HT29 colon,> 100 µM
same,TGI,HT29 colon,> 100 µM
same,GI50,NCI/ADR-RES ovarian,> 100 µM
same,TGI,NCI/ADR-RES ovarian,> 100 µM
same,GI50,OVCAR-8 ovarian,89.4 µM
same,TGI,OVCAR-8 ovarian,> 100 µM
same,GI50,RXF 393 renal,> 100 µM
same,TGI,RXF 393 renal,> 100 µM
same,GI50,CAKI-1 renal,58.1 µM
same,TGI,CAKI-1 renal,> 100 µM
same,GI50,HCT-15 colon,> 100 µM
same,TGI,HCT-15 colon,> 100 µM
same,GI50,HCT-116 colon,> 100 µM
same,TGI,HCT-116 colon,> 100 µM
same,GI50,OVCAR-5 ovarian,> 100 µM
same,TGI,OVCAR-5 ovarian,> 100 µM
same,GI50,SK-OV-3 ovarian,> 100 µM
same,TGI,SK-OV-3 ovarian,> 100 µM
same,GI50,UACC-257 melanoma,> 100 µM
same,TGI,UACC-257 melanoma,> 100 µM
same,GI50,A498 renal,> 100 µM
same,TGI,A498 renal,> 100 µM
same,GI50,A549 NSCLC,> 100 µM
same,TGI,A549 NSCLC,> 100 µM
same,GI50,SK-MEL-28 melanoma,> 100 µM
same,TGI,SK-MEL-28 melanoma,> 100 µM
same,GI50,NCI-H322M lung,> 100 µM
same,TGI,NCI-H322M lung,> 100 µM
same,GI50,MDA-N,> 100 µM
same,TGI,MDA-N,> 100 µM
same,GI50,OVCAR-3 ovarian,> 100 µM
same,TGI,OVCAR-3 ovarian,> 100 µM
same,GI50,ACHN renal,> 100 µM
same,TGI,ACHN renal,> 100 µM
same,GI50,K-562 leukemia,> 100 µM
same,TGI,K-562 leukemia,> 100 µM
same,GI50,MCF7 breast,> 100 µM
same,TGI,MCF7 breast,> 100 µM
same,GI50,SK-MEL-5 melanoma,> 100 µM
same,TGI,SK-MEL-5 melanoma,> 100 µM
same,GI50,COLO 205 colon,> 100 µM
same,TGI,COLO 205 colon,> 100 µM
same,GI50,UO-31 renal,> 100 µM
same,TGI,UO-31 renal,> 100 µM
same,GI50,U251 CNS,> 100 µM
same,TGI,U251 CNS,> 100 µM
same,GI50,SF-268 CNS,> 100 µM
same,TGI,SF-268 CNS,> 100 µM
same,GI50,LOX IMVI melanoma,> 100 µM
same,TGI,LOX IMVI melanoma,> 100 µM
same,GI50,M14 melanoma,84.4 µM
same,TGI,M14 melanoma,> 100 µM
same,GI50,SR leukemia,0.288 µM
same,TGI,SR leukemia,> 100 µM
